1 compound from US8268849B2, “Multifunctional Antioxidants and methods of use thereof” (priority 2007, dated 2012) can be followed below.

Assay [1] is described as follows: Chow consumption, body weight and salivary gland protection after whole head irradiation. Set-up: species or system Long Evans rats. Particulars: rat, in vivo. The source says: Cataracts were induced by whole head gamma irradiation in 24 male Long Evans (150-200 g) rats. […] Because of the amount of drug required for this long-term study, the percentage of JHX-4 and JHX-8 utilized was ½ of the dose used in the diabetic study. […] Lens changes were monitored every 7 days by portable slit lamp and recorded on a scale from 0-6 with 0: Clear, 1: Posterior subcapsular haze, 2: Spokes, suture enhancement and powdery posterior subcapsular deposits, 3: Prominent posterior subcapsular punctate opacities with spokes and suture enhancement, 4: Posterior subcapsular opacity blocks appearance of retinal vessels, 5: Start cortical involvement, 6: Total lens opacity, visible with naked eye. […] Subsequently, all rats received standard rat chow with/without JHX-4 or -8.

Assay [2] relates to lens opacities after whole head irradiation. Particulars: rat, in vivo. The source says: Cataracts were induced by whole head gamma irradiation in 24 male Long Evans (150-200 g) rats. […] Because of the amount of drug required for this long-term study, the percentage of JHX-4 and JHX-8 utilized was ½ of the dose used in the diabetic study. […] Gamma radiation (6000 Curie Cobalt-60 Source, UNMC Experimental Radiation Facility) was delivered to the whole head of unanesthetized, restrained rats at a dose rate of dose 0.341 Gy/minute for a total dose of 15 Gy. Lens changes were monitored every 7 days by portable slit lamp and recorded on a scale from 0-6 with 0: Clear, 1: Posterior subcapsular haze, 2: Spokes, suture enhancement and powdery posterior subcapsular deposits, 3: Prominent posterior subcapsular punctate opacities with spokes and suture enhancement, 4: Posterior subcapsular opacity blocks appearance of retinal vessels, 5: Start cortical involvement, 6: Total lens opacity, visible with naked eye. Since whole head irradiation results in a temporary loss of salivary gland function, all rats received Nutra-Gel (Bio-Serv) with/without JHX-4 or -8 for the first 66 days. Subsequently, all rats received standard rat chow with/without JHX-4 or -8.

SMILES strings stand for the structures.

Consider `CC(C)(CO)[C@@H](O)C(=O)NCCC(=O)NCCSSCCNC(=O)CCNC(=O)[C@H](O)C(C)(C)CO` [Pantethine, reference compound], for which, in assay [1], the “body weight after irradiation” value was “significantly decreased” and the “chow consumption immediately after irradiation” value is on record as “marked reduction in feeding”. Further, the “appearance of lens opacities” value in assay [2] is “minimal”. Also, in assay [2] (ip), the “delay of lens PSC opacities” value worked out at 4 days and the “delay of the average (50% in all animals) formation of PSC punctuate opacities” value was 23 days.
